Source: patent US6652633B2, “Fire retardant” (Arch Wood Protection, Inc., priority 2001, dated 2003)

Test: potentiometric titration against 0.1 N NaOH with mannitol complexation (equivalence points)
Conditions: potentiometric titration of GUP/boric acid solutions, samples complexed with mannitol

Substance: phosphoric acid-dicyandiamide salt
- pKa (equivalence point): approximately 3.20
- pKa (equivalence point) (listed as dicyandiamide/phosphoric acid salt): about 3.2
- pKa (equivalence point) (listed as salt of dicyandiamide and phosphoric acid): 3.2
